The entries are a selection whose mix differs from that of the whole data set. Results filed as inconclusive are left out. The source made the active and inactive calls. Calls come from the whole dose curve; as a rule, active = well fitted activation curve with a large enough effect; inconclusive = small, poorly fitted or top-dose-only effect; inactive = no such curve, though single readings can be large or run the other way.
experiment: A quantitative high throughput screen for small molecules that induce DNA re-replication in MCF 10a normal breast cells.; note: % of control where 0% means no effect; nearly all actives have a fitted effect of over 50% in size; conditions: MCF 10A DNA re-replication, Hoechst nuclear intensity, 48 h; series mostly up to 46.1 µM; activity, positive = re-replication: at the top concentration

SMILES	activity, positive = re-replication	Potency
CC(C)(C)C(=O)NC(Sc1ccccc1)C(Cl)(Cl)Cl (stereo not given)	inactive: -0.15%	–
O=P1(Nc2nc3ccc(Cl)cc3s2)COc2ccccc2O1 (stereo not given)	inactive: 11.6%	–
CCOc1ccc(C2=NCC(CBr)S2)cc1 (stereo not given)	inactive: -3.62%	–
CC(=O)Nc1ccc([As](=O)(O)O)c(O)c1	inactive: -1.73%	–
CC(=O)Nc1ccc(Oc2c([N+](=O)[O-])cc([N+](=O)[O-])cc2[N+](=O)[O-])cc1	inactive: 1.33%	–
COC(=O)C1(C)COP(=O)(NCc2ccccc2)OC1 (stereo not given)	inactive: -0.184%	–
Cc1ccccc1CN(C)C(=O)COC(=O)C(O)(c1ccccc1)c1ccccc1	inactive: 3.83%	–
C[C@H]1OP(=O)(Oc2ccccc2)C[C@@H]2O[C@@H]21 (stereo not given in full)	inactive: 4.36%	–
C[C@@H]1C=CCP(=O)(Oc2ccccc2)O1 (stereo not given in full)	inactive: -0.764%	–
O=P1(N(CCCl)CCCl)OCCC2CCCCN21 (stereo not given)	inactive: -3.6%	–
O=C(NC1CCS(=O)(=O)C1)NP(=S)(Oc1ccccc1)Oc1ccccc1 (stereo not given)	inactive: 2.97%	–
CCNC(=S)/N=C(\N)N[N+](=O)[O-]	inactive: 0.384%	–
c1ccc(-c2nn[nH]n2)c(-c2nn[nH]n2)c1	inactive: -15.7%	–
Cc1ccc(NP(=O)(Oc2cccc(C)c2)Oc2cccc(C)c2)nc1	inactive: 0.0433%	–
CC(NC(=O)COC(=O)C(O)(c1ccccc1)c1ccccc1)c1ccccc1 (stereo not given)	inactive: -11.4%	–
COC(=O)c1cc2c(s1)N=C(c1ccccc1)N(C)P2(=O)N1CCOCC1 (stereo not given)	inactive: -4.04%	–
CC(=O)NC(SC(=S)N(CC(C)C)CC(C)C)C(Cl)(Cl)Cl (stereo not given)	inactive: 4.49%	–
Cc1ccc(OP(=O)(Nc2ccccn2)Oc2ccc(C)cc2)cc1	inactive: 18.2%	–
O=C(OC1CN2CCC1CC2)c1ccccc1 (stereo not given)	–	inactive
CCC(=O)N1C2C3N(C(=O)CC)C1C1N(C(=O)CC)C(C(N1C(=O)CC)N3C(=O)CC)N2C(=O)CC	inactive: 5.83%	–

Reference: PubChem BioAssay AID624296 (National Center for Advancing Translational Sciences (NCATS), 2012)
